{"sequences": {"note": "The chains behind the UniProt entries cited, without tags or fusion partners. Where a name states a change or a piece, a line headed by the entry shows the natural chain unless it says otherwise. Residues count along the entry.", "UniProt P35462, whole entry": "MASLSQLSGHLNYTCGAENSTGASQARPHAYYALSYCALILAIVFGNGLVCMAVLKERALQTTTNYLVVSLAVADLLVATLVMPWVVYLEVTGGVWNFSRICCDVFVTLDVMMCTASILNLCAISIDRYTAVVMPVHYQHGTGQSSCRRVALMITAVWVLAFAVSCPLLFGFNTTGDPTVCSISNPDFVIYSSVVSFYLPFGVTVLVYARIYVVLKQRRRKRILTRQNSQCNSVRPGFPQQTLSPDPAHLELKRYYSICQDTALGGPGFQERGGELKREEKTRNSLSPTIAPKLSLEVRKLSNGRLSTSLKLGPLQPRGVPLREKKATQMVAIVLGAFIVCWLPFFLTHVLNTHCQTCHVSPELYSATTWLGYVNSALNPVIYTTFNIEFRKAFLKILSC", "UniProt P14416, whole entry": "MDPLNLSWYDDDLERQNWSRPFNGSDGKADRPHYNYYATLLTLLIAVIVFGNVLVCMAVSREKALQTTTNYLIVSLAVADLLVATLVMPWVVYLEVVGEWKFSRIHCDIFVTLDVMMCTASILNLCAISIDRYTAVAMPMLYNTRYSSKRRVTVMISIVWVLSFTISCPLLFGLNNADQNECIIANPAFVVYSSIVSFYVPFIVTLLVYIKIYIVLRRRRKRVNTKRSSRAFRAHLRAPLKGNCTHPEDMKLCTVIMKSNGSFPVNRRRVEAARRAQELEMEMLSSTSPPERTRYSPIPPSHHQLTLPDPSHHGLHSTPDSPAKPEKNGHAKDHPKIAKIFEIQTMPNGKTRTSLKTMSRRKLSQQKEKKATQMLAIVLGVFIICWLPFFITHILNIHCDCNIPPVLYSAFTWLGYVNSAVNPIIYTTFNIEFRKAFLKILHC", "UniProt P14416, 1-414 isoform P14416-2": "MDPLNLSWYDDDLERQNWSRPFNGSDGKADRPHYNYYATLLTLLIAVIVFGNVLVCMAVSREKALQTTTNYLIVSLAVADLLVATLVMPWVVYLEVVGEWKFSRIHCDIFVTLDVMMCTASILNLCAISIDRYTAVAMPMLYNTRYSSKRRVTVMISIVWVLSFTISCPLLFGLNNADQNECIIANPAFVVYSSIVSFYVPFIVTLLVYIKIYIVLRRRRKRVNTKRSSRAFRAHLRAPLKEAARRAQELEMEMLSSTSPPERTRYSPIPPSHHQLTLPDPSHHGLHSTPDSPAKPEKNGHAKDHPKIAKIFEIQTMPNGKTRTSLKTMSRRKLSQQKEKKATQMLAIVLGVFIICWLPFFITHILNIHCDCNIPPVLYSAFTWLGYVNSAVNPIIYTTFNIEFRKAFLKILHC"}, "source": "patent US9108900B2", "about": "“Method of treating diseases that respond to therapy by dopamine or dopamine agonists” (UCB Pharma GmbH, priority 2003, dated 2015)", "key": {"dopamine D3 (h) [1]": {"target": "T1, dopamine D3 (h) (Homo sapiens, UniProt P35462)", "details": "receptor binding tests"}, "D2L": {"target": "D2L (Homo sapiens, UniProt P14416)", "test": "cell-based"}, "D3": {"target": "D3 (Homo sapiens, UniProt P35462)", "test": "cell-based"}, "dopamine D2S (h)": {"target": "dopamine D2S (h) (Homo sapiens, UniProt P14416)", "test": "biochemical"}, "dopamine D3 (h) [2]": {"target": "T1, dopamine D3 (h)", "test": "biochemical"}}, "data": [{"smiles": "CCCN[C@H]1CCc2c(O)cccc2C1", "values": [{"measurement": "selectivity D3/D1", "setting": "dopamine D3 (h) [1]", "value": "> 1000"}, {"measurement": "selectivity D3/D2", "setting": "dopamine D3 (h) [1]", "value": "approx. 40"}, {"measurement": "selectivity D3/D5", "setting": "dopamine D3 (h) [1]", "value": "> 1000"}, {"measurement": "EC50", "setting": "D2L", "value": 2.7, "unit": "nM"}, {"measurement": "EC50", "setting": "D3", "value": 0.67, "unit": "nM"}, {"measurement": "Ki", "setting": "dopamine D2S (h)", "value": 290, "unit": "nM"}, {"measurement": "Ki", "setting": "dopamine D3 (h) [2]", "value": 7.6, "unit": "nM"}]}]}
